{"source": "paper PMC5355811", "about": "(Nature Communications, 2017)", "format_in_all_cases": "cell-based", "key": {"[1]": {"test_system": "Ba/F3 cells of EGFR-C797S/del19", "assay": "Drug sensitivity screening at 100 nM, Ba/F3 EGFR-C797S/del19", "conditions": "for viability at 0.1 µM: Mus musculus, BaF3, 72 h, read-out: Relative cell viability (ratio to DMSO control), del19/C797S; for Cell inhibition rate relative to DMSO in C797S/del19 Ba/F3 cells: 100 nM"}, "[2]": {"test_system": "phosphorylation of EGFR in Ba/F3 cells expressing EGFR-C797S/T790M/L858R", "assay": "Western blotting of EGFR signalling, Ba/F3 triple-L858R", "conditions": "6 h, up to 1000 nM"}, "[3]": {"test_system": "Ba/F3 cells expressing EGFR-C797S/L858R", "assay": "CellTiter-Glo cell viability assay, Ba/F3 EGFR-C797S/L858R", "conditions": "Mus musculus, read-out: IC50, Ba/F3 C797S/L858R"}, "[4]": {"test_system": "Ba/F3 cells of EGFR-C797S/T790M/del19", "assay": "Drug sensitivity screening at 100 nM, Ba/F3 EGFR-C797S/T790M/del19", "conditions": "for viability at 0.1 µM: Mus musculus, BaF3, 72 h, read-out: Relative cell viability (ratio to DMSO control), del19/T790M/C797S; for Cell inhibition rate relative to DMSO in C797S/T790M/del19 Ba/F3 cells: 100 nM; for Cell inhibition rate relative to DMSO in C797S/T790M/del19 Ba/F3 cells / Relative cell viability (ratio to DMSO control), del19/T790M/C797S: 72 h, DMSO = 100; for Relative cell viability (ratio to DMSO control), del19/T790M/C797S: 100 nM inhibitor, mean of three independent experiments (Fig. 1a data)"}, "[5]": {"conditions": "100 nM inhibitor, 72 h, DMSO = 100, mean of three independent experiments (Fig. 1a data)"}}, "note": "“And” between values parts separate entries of the source, which are not always exact repeats. Equal entries are not always repeated. Where two headings read alike, the source gives them in different places."}
{"smiles": "COc1cc(N2CCC(N3CCN(C)CC3)CC2)ccc1Nc1ncc(Cl)c(Nc2ccccc2S(=O)(=O)C(C)C)n1", "note": "[TAE684]", "values": [{"measurement": "viability at 0.1 µM", "setting": "[1]; [5]", "value": 86.7, "unit": "%"}, {"measurement": "phosphorylation of EGFR and downstream signal pathway, Ba/F3 C797S/T790M/L858R", "setting": "[2]", "value": "didn’t suppress the signals"}]}
{"smiles": "COc1cc(N2CCC(N3CCN(C)CC3)CC2)ccc1Nc1ncc(Cl)c(Nc2ccccc2P(C)(C)=O)n1", "note": "[Brigatinib, brigatinib]", "values": [{"measurement": "viability at 0.1 µM", "setting": "[1]; [5]", "value": 5.64, "unit": "%"}, {"measurement": "IC50", "setting": "[3]; BaF3, 72 h", "value": 298, "unit": "nM"}, {"measurement": "phosphorylation of EGFR and downstream signal pathway, Ba/F3 C797S/T790M/L858R", "setting": "[2]", "value": "inhibited the phosphorylation of EGFR"}]}
{"smiles": "CS(=O)(=O)CCNCc1ccc(-c2ccc3ncnc(Nc4ccc(OCc5cccc(F)c5)c(Cl)c4)c3c2)o1", "note": "[Lapatinib, lapatinib]", "values": [{"measurement": "viability at 0.1 µM", "setting": "[4]", "value": 136, "unit": "%"}]}
{"smiles": "Cc1[nH]c(/C=C2\\C(=O)Nc3ccc(S(=O)(=O)Cc4c(Cl)cccc4Cl)cc32)c(C)c1C(=O)N1CCC[C@@H]1CN1CCCC1", "note": "[PHA665752]", "values": [{"measurement": "Cell inhibition rate relative to DMSO in C797S/T790M/del19 Ba/F3 cells", "setting": "[4]; experiment 2", "value": 141.184}, {"measurement": "Cell inhibition rate relative to DMSO in C797S/T790M/del19 Ba/F3 cells", "setting": "[4]; experiment 3", "value": 137.987}]}
{"smiles": "C=CCNC1=C2C[C@@H](C)C[C@H](OC)[C@H](O)[C@@H](C)/C=C(\\C)[C@H](OC(N)=O)[C@@H](OC)/C=C\\C=C(/C)C(=O)NC(=CC1=O)C2=O", "note": "[17-AAG]", "values": [{"measurement": "Relative cell viability (ratio to DMSO control), del19/C797S", "setting": "[1]; [5]", "value": "42.00 and 41.9985"}, {"measurement": "Cell inhibition rate relative to DMSO in C797S/del19 Ba/F3 cells", "setting": "[1]; 72 h, DMSO = 100, experiment 1", "value": 42.4791}, {"measurement": "Cell inhibition rate relative to DMSO in C797S/del19 Ba/F3 cells", "setting": "[1]; 72 h, DMSO = 100, experiment 2", "value": 43.3841}, {"measurement": "Cell inhibition rate relative to DMSO in C797S/del19 Ba/F3 cells", "setting": "[1]; 72 h, DMSO = 100, experiment 3", "value": 40.1323}, {"measurement": "Relative cell viability (ratio to DMSO control), del19/T790M/C797S", "setting": "[4]", "value": "70.41 and 70.4124"}, {"measurement": "Cell inhibition rate relative to DMSO in C797S/T790M/del19 Ba/F3 cells", "setting": "[4]; experiment 1", "value": 62.3983}, {"measurement": "Cell inhibition rate relative to DMSO in C797S/T790M/del19 Ba/F3 cells", "setting": "[4]; experiment 2", "value": 74.757}, {"measurement": "Cell inhibition rate relative to DMSO in C797S/T790M/del19 Ba/F3 cells", "setting": "[4]; experiment 3", "value": 74.082}]}
{"smiles": "C[C@]12O[C@H](C[C@]1(O)CO)n1c3ccccc3c3c4c(c5c6ccccc6n2c5c31)CNC4=O", "note": "[CEP701]", "values": [{"measurement": "viability at 0.1 µM", "setting": "[4]", "value": 16.6, "unit": "%"}]}
{"smiles": "Nc1ncnc2c1c(-c1cccc(OCc3ccccc3)c1)cn2[C@H]1C[C@@H](CN2CCC2)C1", "note": "[AEW541]", "values": [{"measurement": "Cell inhibition rate relative to DMSO in C797S/T790M/del19 Ba/F3 cells", "setting": "[4]; experiment 2", "value": 133.665}, {"measurement": "Cell inhibition rate relative to DMSO in C797S/T790M/del19 Ba/F3 cells", "setting": "[4]; experiment 3", "value": 138.399}]}
{"smiles": "O=C(C(c1ccccc1)c1ccccc1)N1CCN(CC(O)COc2cccc3ncccc23)CC1", "note": "(stereo not drawn) [MS209]", "values": [{"measurement": "Relative cell viability (ratio to DMSO control), del19/C797S", "setting": "[1]; [5]", "value": 110.326}, {"measurement": "Cell inhibition rate relative to DMSO in C797S/del19 Ba/F3 cells", "setting": "[1]; 72 h, DMSO = 100, experiment 1", "value": 108.744}, {"measurement": "Cell inhibition rate relative to DMSO in C797S/del19 Ba/F3 cells", "setting": "[1]; 72 h, DMSO = 100, experiment 2", "value": 109.544}, {"measurement": "Cell inhibition rate relative to DMSO in C797S/del19 Ba/F3 cells", "setting": "[1]; 72 h, DMSO = 100, experiment 3", "value": 112.691}, {"measurement": "Relative cell viability (ratio to DMSO control), del19/T790M/C797S", "setting": "[4]", "value": 120.168}, {"measurement": "Cell inhibition rate relative to DMSO in C797S/T790M/del19 Ba/F3 cells", "setting": "[4]; experiment 1", "value": 110.451}, {"measurement": "Cell inhibition rate relative to DMSO in C797S/T790M/del19 Ba/F3 cells", "setting": "[4]; experiment 2", "value": 130.343}, {"measurement": "Cell inhibition rate relative to DMSO in C797S/T790M/del19 Ba/F3 cells", "setting": "[4]; experiment 3", "value": 119.71}]}
{"smiles": "Cc1ccc(C(=O)Nc2ccc(CN3CCN(C)CC3)c(C(F)(F)F)c2)cc1C#Cc1cnc2cccnn12", "note": "[Ponatinib, ponatinib]", "values": [{"measurement": "viability at 0.1 µM", "setting": "[1]", "value": 42.7, "unit": "%"}, {"measurement": "viability at 0.1 µM", "setting": "[4]", "value": 53.9, "unit": "%"}]}
{"smiles": "COc1cc(N2CCC(N3CCN(C)CC3)CC2)ccc1Nc1ncnc(Nc2ccccc2S(=O)(=O)C(C)C)n1", "note": "[ASP3026]", "values": [{"measurement": "IC50", "setting": "[3]; BaF3, Supplementary Fig. 8e, 72 h", "value": 1040, "unit": "nM"}, {"measurement": "phosphorylation of EGFR and downstream signal pathway, Ba/F3 C797S/T790M/L858R", "setting": "[2]", "value": "didn’t suppress the signals"}]}
{"smiles": "CC(=O)Nc1cccc(-n2c(=O)n(C3CC3)c(=O)c3c(Nc4ccc(I)cc4F)n(C)c(=O)c(C)c32)c1", "note": "[Trametinib, trametinib]", "values": [{"measurement": "Cell inhibition rate relative to DMSO in C797S/T790M/del19 Ba/F3 cells", "setting": "[4]; experiment 1", "value": 43.7937}, {"measurement": "Cell inhibition rate relative to DMSO in C797S/T790M/del19 Ba/F3 cells", "setting": "[4]; experiment 2", "value": 45.2979}, {"measurement": "Cell inhibition rate relative to DMSO in C797S/T790M/del19 Ba/F3 cells", "setting": "[4]; experiment 3", "value": 43.3634}]}
{"smiles": "CCc1cc2c(cc1N1CCC(N3CCOCC3)CC1)C(C)(C)c1[nH]c3cc(C#N)ccc3c1C2=O", "note": "[Alectinib, alectinib]", "values": [{"measurement": "Cell inhibition rate relative to DMSO in C797S/T790M/del19 Ba/F3 cells", "setting": "[4]; experiment 2", "value": 159.496}, {"measurement": "Cell inhibition rate relative to DMSO in C797S/T790M/del19 Ba/F3 cells", "setting": "[4]; experiment 3", "value": 143.275}]}
